Consider 2 compounds from patent US10085990B2, “Tricyclic compounds as modulators of TNF-α synthesis and as PDE4 inhibitors” (vTv Therapeutics LLC, priority 2008, dated 2018).

For this experiment, the system named is TNF synthesis in human PBMC. As to the kind of experiment: Human PBMC TNF Synthesis Assay. The note with it: LPS-stimulated human PBMC, overnight incubation, TNF ELISA; read-out: TNF inhib. It counts as cell-based. Here is the method:
Human PBMC TNF Synthesis Assay
Human PBMC were obtained by from a healthy human donor leuko pak. Typically, all donors were pre-screened for STD, HIV and have been given a physical by a physician. One to two ampoules were thawed at 37° C. and then resuspended in 45 to 85 mL of RPMI+10% FBS to a final concentration of 2.5×10^6 cells/mL. Resuspended cells were filtered to remove any large clumps.
Prepare compounds for addition to cells: All compounds were DMSO stocks at 20 mM. Working stock for cell testing were prepared as 4× concentrated material in RPMI+10% FBS. Compounds were added to a polypropylene block and then diluted with the appropriate amount of RPMI+10% FBS. Typically 2.6 μL of 20 mM stock was diluted to 650 μL final volume to yield an 80 μM starting concentration in the stocks. RPMI was added to DMSO stock by pipetting into the tube or block. The compounds were then serial diluted with RPMI+10% FBS. The final DMSO concentrations were not greater than 0.5% in the assay.
Compounds were added to the cells as 4× working stock. 50 μL of compound was prepared above is added to the cells and re-equilibrated in a humidified 5% CO2 incubator at 37° C. for 30 minutes.
A stock of LPS was prepared using RPMI+10% FBS. To prepare the stock, 2.8 μL of LPS (5 mg/mL; Sigma Cat #L3024) was added to 35 mL of media. 50 μL of the LPS in media was added to the cells. […]
For orientation: In an ELISA, binding on a coated surface is turned into a signal by an enzyme label.

On to `COc1cccc2c1ncc1c(=O)n(-c3cccc(Cl)c3)c(=O)n([C@@H]3CCN(S(C)(=O)=O)C3)c12` [Example 115, 3-(3-Chloro-phenyl)-1-((R)-1-methanesulfonyl-pyrrolidin-3-yl)-7-methoxy-1H-pyrimido[5,4-c]quinoline-2,4-dione], for which the IC50 worked out at 29 nM. Consider `COc1cccc2c1ncc1c(=O)n(-c3cccc(Cl)c3)c(=O)n([C@H]3CCN(S(C)(=O)=O)C3)c12` [Example 118, 3-(3-Chloro-phenyl)-1-((S)-1-methanesulfonyl-pyrrolidin-3-yl)-7-methoxy-1H-pyrimido[5,4-c]quinoline-2,4-dione], for which the IC50 worked out at 29 nM.
